Drawing on patent publication US6635653B2 (priority 2001, dated 2003), this text covers Ki for three molecules.

Amino acid sequences for entries named in this document (tags omitted). A change or cut given only in a name is not applied to a line headed by its entry.
UniProt P41146: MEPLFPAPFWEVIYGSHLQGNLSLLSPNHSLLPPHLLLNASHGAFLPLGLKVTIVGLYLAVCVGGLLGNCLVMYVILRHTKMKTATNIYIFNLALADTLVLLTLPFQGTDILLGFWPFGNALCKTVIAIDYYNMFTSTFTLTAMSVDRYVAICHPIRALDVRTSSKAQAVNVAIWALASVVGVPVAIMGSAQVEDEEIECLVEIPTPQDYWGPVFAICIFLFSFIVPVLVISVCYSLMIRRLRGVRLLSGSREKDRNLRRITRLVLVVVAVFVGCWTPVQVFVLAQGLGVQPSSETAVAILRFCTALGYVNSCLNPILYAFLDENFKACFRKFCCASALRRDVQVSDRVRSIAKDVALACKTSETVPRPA

The assay deals with human opioid receptor-like receptor (ORL-1) (Homo sapiens, UniProt P41146). The settings on record: read-out: Nociceptin Affinity calc Ki; membranes from recombinant HEK-293 cells expressing human ORL-1.

For the molecule `O=C1NN=C(c2ccccc2)C12CCN(C1Cc3ccccc3C1)CC2`, the inhibitory constant (Ki) is 43 nM.
Then `O=C1NN=C(c2ccccc2)C12CCN(C1CCc3ccccc3C1)CC2` (stereo not drawn), with 52.3 nM; and `O=C1NN=C(c2ccccc2)C12CCN(C1Cc3cccc4cccc1c34)CC2` (stereo not drawn), with 0.06 nM.

One may read the Ki as the equilibrium dissociation constant of an inhibitor or competing ligand from its target.
